Laboratory results: BindingDB's records for 35526478

Sequences of proteins named here, by UniProt entry; tags and fusion partners are left off. Residues count along the entry.
UniProt P06276, 29-602 limits assumed: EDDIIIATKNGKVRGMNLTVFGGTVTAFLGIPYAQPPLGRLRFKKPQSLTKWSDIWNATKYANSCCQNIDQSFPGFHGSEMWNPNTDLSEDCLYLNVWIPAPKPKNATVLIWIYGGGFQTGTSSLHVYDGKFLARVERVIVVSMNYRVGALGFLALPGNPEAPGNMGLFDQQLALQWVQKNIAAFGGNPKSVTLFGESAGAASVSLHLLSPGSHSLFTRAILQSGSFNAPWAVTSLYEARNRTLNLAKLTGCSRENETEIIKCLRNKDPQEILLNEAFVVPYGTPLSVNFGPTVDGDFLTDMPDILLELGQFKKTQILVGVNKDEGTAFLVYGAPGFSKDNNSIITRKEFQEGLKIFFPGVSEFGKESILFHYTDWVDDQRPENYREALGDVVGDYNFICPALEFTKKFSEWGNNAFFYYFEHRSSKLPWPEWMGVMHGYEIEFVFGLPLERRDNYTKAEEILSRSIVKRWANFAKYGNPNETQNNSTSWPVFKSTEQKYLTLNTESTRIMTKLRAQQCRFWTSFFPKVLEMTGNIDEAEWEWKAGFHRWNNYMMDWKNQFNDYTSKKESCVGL

Biological target: Cholinesterase (Homo sapiens, UniProt P06276)
Assay: ASSAY_NAME: ChEMBL_2201900 (CHEMBL5114608) DESCRIPTION: Reactivation of tabun induced inhibition of BChE in human plasma using ATCh as substrate by Ellman's method

`NC(=O)c1cc[n+](CCCC[n+]2ccc(/C=N/O)cc2)cc1` gave a Ki of 420 µM.
